Values belong to the binder of their own block, whether it stands above or below them.
How the values were obtained:
[1] = target: human Ang-2 H375Q (human) (UniProt O15123); experiment: ELISA
[2] = target: Human Ang-1/2 BsmI chimera (human); experiment: ELISA
[3] = target: human Ang-2 V345M (human) (UniProt O15123); experiment: ELISA
[4] = target: human Ang-2 mutated at positions 365 and 367 (human) (UniProt O15123); experiment: ELISA
[5] = target: recombinant human Angiopoietin-2 (human) (UniProt O15123); experiment: Biacore, mAb captured
[6] = target: Mouse/Human Ang-2 StuI chimera (mouse; human) (UniProt O35608); experiment: ELISA
human Ang-2443 (human) = human Ang-2443 (human) (UniProt O15123); experiment: ELISA
[7] = target: recombinant human Angiopoietin-2 (human) (UniProt O15123); experiment: Biacore, mAb captured; kd held constant in fit

Protein sequences, listed by entry. Tags and fused reporters are not part of them. Lines headed by an entry give the natural chain unless they say otherwise; changes in a name come on top. Chains listed by the source or under a name are the forms on record and can include a tag or linker. Residues count along the entry.
UniProt O15123, 19-496, stated change not applied: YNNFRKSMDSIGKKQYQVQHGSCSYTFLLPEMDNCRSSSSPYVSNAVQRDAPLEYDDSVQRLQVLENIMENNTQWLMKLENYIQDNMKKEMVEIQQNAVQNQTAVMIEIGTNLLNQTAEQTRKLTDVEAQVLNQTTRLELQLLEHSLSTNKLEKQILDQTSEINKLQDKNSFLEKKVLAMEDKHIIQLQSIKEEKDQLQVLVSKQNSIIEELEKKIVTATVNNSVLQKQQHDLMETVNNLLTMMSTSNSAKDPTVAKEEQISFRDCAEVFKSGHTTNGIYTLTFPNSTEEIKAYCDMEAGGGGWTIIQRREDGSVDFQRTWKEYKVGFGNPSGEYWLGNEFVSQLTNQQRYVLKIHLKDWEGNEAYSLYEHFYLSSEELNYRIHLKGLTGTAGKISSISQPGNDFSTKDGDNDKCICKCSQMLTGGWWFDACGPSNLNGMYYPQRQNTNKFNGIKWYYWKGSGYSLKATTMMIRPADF
UniProt O15123, other isoform, or with tags, fused parts or gaps: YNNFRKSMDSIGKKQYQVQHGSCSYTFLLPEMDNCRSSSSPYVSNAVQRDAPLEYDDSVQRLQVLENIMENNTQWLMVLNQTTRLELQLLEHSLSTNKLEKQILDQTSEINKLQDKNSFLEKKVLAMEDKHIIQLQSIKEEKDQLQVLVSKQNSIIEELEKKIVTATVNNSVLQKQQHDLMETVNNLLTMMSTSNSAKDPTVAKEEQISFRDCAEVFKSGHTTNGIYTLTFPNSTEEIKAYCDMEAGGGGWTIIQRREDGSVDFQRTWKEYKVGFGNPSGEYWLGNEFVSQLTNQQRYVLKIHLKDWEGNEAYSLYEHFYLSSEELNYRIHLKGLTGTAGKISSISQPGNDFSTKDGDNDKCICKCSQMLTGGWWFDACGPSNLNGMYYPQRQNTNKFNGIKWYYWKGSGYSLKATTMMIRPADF
UniProt O35608: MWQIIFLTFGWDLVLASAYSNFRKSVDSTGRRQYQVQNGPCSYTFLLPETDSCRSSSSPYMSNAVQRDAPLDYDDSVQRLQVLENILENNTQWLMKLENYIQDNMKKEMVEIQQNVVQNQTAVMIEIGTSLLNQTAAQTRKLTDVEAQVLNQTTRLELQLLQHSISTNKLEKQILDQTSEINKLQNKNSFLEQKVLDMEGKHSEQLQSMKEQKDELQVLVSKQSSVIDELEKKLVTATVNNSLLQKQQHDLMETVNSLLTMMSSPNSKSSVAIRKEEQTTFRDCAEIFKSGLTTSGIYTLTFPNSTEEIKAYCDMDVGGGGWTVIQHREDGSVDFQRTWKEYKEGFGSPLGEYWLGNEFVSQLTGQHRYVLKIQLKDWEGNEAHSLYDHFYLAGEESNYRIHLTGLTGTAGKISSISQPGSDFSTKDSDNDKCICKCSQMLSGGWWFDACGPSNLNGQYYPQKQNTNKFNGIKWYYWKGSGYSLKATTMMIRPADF

percent binding compared to human Ang-2 [1]: 100%
percent binding compared to human Ang-2 [2]: 100%
percent binding compared to human Ang-2 [3]: 100%
percent binding compared to human Ang-2 [4]: 100%
B1: mAb 5.101.1 (antibody, V domains shown)
VH: QVQLVQSGAEVKKPGASVKVSCKASGYTFTGYYMHWVPQAPGQGLEWMGWINPNSGGTNYAQKFQGRVTMTRDTSISTAYMELRRLRSDDTAVYYCARDGGSIPVSGHFDYWGQGTLVTVSS
VL: EIVMTQSPATLSVSPGERATLSCRASQSLISNLAWYQQKPGQAPRLLIFGASTRATGIPARFSGSGSGTEFTLTISSLQSEDFAVYYCHQYNNWWTFGQGTKVEIKR

Kd [5]: 0.049 nM
kon [5]: 200000 M⁻¹ s⁻¹
percent binding compared to human Ang-2 [1]: 100%
percent binding compared to human Ang-2 [2]: 100%
percent binding compared to human Ang-2 [3]: 100%
percent binding compared to human Ang-2 [4]: 100%
percent binding compared to human Ang-2 [6]: 100%
percent binding compared to human Ang-2 (human Ang-2443 (human)): 100%
koff [7]: 1e-05 s⁻¹
B2: mAb 5.14.1 (antibody, part only; not given: light chain, V domains shown, part only)
VH: QVQLVQSGAEVKKPGASVKVSCKASGYTFTGYYMYWVRQAPGQGLEWMGWINPNSGGTNYAQKFQGRVTMTRDTSISTAYMELSRLRSDDTAVYYCARDQGITVAGPFDYWGQGSLVTVSSA
